Test results: ChEMBL document CHEMBL5579837, “Dual 5-HT6/SERT ligands for mitigating neuropsychiatric symptoms of dementia exerting neuroprotection against amyloid-β toxicity, memory preservation, and antidepressant-like properties” (Eur J Med Chem, 2024)

The chains behind the UniProt entries cited, without tags or fusion partners. Where a name states a change or a piece, a line headed by the entry shows the natural chain unless it says otherwise.
UniProt P15823, whole entry, looked up: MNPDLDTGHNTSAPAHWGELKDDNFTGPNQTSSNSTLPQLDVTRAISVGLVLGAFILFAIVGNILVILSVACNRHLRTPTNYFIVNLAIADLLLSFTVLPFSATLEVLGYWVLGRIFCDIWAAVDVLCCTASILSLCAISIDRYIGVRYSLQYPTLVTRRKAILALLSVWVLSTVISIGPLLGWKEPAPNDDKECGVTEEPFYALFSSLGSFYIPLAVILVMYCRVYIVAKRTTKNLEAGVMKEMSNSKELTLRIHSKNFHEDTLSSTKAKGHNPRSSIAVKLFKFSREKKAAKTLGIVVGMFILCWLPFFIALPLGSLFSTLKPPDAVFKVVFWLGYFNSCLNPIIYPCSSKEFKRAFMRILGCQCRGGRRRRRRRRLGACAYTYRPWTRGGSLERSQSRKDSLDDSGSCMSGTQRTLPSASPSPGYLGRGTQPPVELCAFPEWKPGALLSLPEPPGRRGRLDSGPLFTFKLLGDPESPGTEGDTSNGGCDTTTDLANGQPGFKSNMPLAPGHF
UniProt P23944, whole entry, looked up: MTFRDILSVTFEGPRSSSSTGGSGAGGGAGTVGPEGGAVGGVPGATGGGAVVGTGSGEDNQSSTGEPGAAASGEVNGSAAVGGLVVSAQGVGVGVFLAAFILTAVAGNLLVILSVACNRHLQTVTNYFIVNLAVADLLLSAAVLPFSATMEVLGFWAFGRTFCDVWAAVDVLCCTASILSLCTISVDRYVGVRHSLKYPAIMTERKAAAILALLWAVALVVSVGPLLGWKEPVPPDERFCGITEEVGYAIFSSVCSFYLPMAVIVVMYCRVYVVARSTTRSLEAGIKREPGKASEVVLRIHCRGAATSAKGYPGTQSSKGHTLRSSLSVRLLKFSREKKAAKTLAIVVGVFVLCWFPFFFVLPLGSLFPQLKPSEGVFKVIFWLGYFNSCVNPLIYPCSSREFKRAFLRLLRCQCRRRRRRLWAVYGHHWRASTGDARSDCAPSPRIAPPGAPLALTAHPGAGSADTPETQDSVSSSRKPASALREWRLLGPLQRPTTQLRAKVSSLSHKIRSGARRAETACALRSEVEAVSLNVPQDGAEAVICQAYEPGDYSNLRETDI
UniProt P43140: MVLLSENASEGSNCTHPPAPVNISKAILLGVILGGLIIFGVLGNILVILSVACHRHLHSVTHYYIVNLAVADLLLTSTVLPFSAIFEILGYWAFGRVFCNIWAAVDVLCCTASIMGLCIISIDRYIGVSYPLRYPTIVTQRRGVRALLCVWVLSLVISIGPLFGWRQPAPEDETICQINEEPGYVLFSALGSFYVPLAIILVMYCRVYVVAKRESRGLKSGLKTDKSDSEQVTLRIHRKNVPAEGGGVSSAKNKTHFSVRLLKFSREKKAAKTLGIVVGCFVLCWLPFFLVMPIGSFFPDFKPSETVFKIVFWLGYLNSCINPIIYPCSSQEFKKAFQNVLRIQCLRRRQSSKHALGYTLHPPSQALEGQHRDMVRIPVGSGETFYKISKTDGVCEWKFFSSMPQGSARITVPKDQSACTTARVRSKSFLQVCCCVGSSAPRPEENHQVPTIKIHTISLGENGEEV

target: Adrenergic receptor alpha-1 (Rattus norvegicus) (UniProt P15823+P23944+P43140); test: Binding affinity to rat cortex alpha-1 adrenergic receptor assessed as reduction in [3H]-Prazosin binding to ADRA1 at 1 uM incubated for 30 mins by microbeta2 scintillation counter analysis relative to control; assay type: tissue-based; design: scale not given: the % may be the effect or the level left

Row | Activity | SMILES
1 | 0% | Cc1c(OCc2ccccc2)cccc1N1CCN(CCCc2c[nH]c3ccc(F)cc23)CC1
2 | 13% | O=c1[nH]c2c(N3CCN(CCc4c[nH]c5ccc(Cl)cc45)CC3)cccc2n1Cc1ccccc1
3 | 0% | Cc1c(OCc2ccccc2)cccc1N1CCN(CCCc2c[nH]c3ccc(Cl)cc23)CC1
4 | 81% | N#Cc1ccc2[nH]cc(CCN3CCN(c4cccc5c4ccn5S(=O)(=O)c4ccccc4)CC3)c2c1
5 | 8% | N#Cc1ccc2[nH]cc(CCCN3CCN(c4cccc5c4[nH]c(=O)n5Cc4ccccc4)CC3)c2c1
6 | 15% | Cc1c(OCc2ccccc2)cccc1N1CCN(CCc2c[nH]c3ccc(C#N)cc23)CC1
7 | 7% | O=S(=O)(c1ccccc1)n1ccc2c(N3CCN(CCc4c[nH]c5ccc(Cl)cc45)CC3)cccc21
8 | 29% | O=S(=O)(c1ccccc1)c1c[nH]c2c(C3CCN(CCCc4c[nH]c5ccc(F)cc45)CC3)cccc12
9 | 10% | Cc1c(OCc2ccccc2)cccc1N1CCN(CCCCc2c[nH]c3ccc(C#N)cc23)CC1
10 | 0% | N#Cc1ccc2[nH]cc(CCCCN3CCC(c4cccc5c(S(=O)(=O)c6ccccc6)c[nH]c45)CC3)c2c1
11 | 83% | O=S(=O)(c1ccccc1)n1ccc2c(N3CCN(CCCc4c[nH]c5ccc(Cl)cc45)CC3)cccc21
12 | 80% | O=S(=O)(c1ccccc1)n1ccc2c(N3CCN(CCCc4c[nH]c5ccc(F)cc45)CC3)cccc21
13 | 5% | N#Cc1ccc2[nH]cc(CCCCN3CCN(c4cccc5c4[nH]c(=O)n5Cc4ccccc4)CC3)c2c1
14 | 0% | N#Cc1ccc2[nH]cc(CCCN3CCN(c4cccc5c4ccn5S(=O)(=O)c4ccccc4)CC3)c2c1
15 | 2% | O=S(=O)(c1ccccc1)c1c[nH]c2c(C3CCN(CCc4c[nH]c5ccc(F)cc45)CC3)cccc12
16 | 10% | Cc1c(OCc2ccccc2)cccc1N1CCN(CCCc2c[nH]c3ccc(C#N)cc23)CC1
17 | 4% | N#Cc1ccc2[nH]cc(CCN3CCN(c4cccc5c4[nH]c(=O)n5Cc4ccccc4)CC3)c2c1
18 | 91% | N#Cc1ccc2[nH]cc(CCCCN3CCN(c4cccc5c4ccn5S(=O)(=O)c4ccccc4)CC3)c2c1
19 | 3% | O=c1[nH]c2c(N3CCN(CCCc4c[nH]c5ccc(F)cc45)CC3)cccc2n1Cc1ccccc1
20 | 6% | N#Cc1ccc2[nH]cc(CCCN3CCC(c4cccc5c(S(=O)(=O)c6ccccc6)c[nH]c45)CC3)c2c1
21 | 16% | O=S(=O)(c1ccccc1)c1c[nH]c2c(C3CCN(CCc4c[nH]c5ccc(Cl)cc45)CC3)cccc12
22 | 7% | Cc1c(OCc2ccccc2)cccc1N1CCN(CCc2c[nH]c3ccc(F)cc23)CC1
23 | 29% | N#Cc1ccc2[nH]cc(CCN3CCC(c4cccc5c(S(=O)(=O)c6ccccc6)c[nH]c45)CC3)c2c1
24 | 0% | Cc1c(OCc2ccccc2)cccc1N1CCN(CCc2c[nH]c3ccc(Cl)cc23)CC1
25 | 2% | O=c1[nH]c2c(N3CCN(CCCc4c[nH]c5ccc(Cl)cc45)CC3)cccc2n1Cc1ccccc1
26 | 0% | O=c1[nH]c2c(N3CCN(CCc4c[nH]c5ccc(F)cc45)CC3)cccc2n1Cc1ccccc1
27 | 87% | O=S(=O)(c1ccccc1)n1ccc2c(N3CCN(CCc4c[nH]c5ccc(F)cc45)CC3)cccc21
28 | 22% | O=S(=O)(c1ccccc1)c1c[nH]c2c(C3CCN(CCCc4c[nH]c5ccc(Cl)cc45)CC3)cccc12
